Target: TBK1 (residues 1-657) (Homo sapiens (Human), UniProt Q9UHD2)
Assay: TBK1 dose-response kinase assay
Assay type: biochemical
Conditions: TBK1 IC50 relative to amlexanox; greater than 1 = improved potency

By UniProt entry, the sequences of proteins in these tests, tags left out. Residues count along the entry.
UniProt Q9UHD2, 1-657: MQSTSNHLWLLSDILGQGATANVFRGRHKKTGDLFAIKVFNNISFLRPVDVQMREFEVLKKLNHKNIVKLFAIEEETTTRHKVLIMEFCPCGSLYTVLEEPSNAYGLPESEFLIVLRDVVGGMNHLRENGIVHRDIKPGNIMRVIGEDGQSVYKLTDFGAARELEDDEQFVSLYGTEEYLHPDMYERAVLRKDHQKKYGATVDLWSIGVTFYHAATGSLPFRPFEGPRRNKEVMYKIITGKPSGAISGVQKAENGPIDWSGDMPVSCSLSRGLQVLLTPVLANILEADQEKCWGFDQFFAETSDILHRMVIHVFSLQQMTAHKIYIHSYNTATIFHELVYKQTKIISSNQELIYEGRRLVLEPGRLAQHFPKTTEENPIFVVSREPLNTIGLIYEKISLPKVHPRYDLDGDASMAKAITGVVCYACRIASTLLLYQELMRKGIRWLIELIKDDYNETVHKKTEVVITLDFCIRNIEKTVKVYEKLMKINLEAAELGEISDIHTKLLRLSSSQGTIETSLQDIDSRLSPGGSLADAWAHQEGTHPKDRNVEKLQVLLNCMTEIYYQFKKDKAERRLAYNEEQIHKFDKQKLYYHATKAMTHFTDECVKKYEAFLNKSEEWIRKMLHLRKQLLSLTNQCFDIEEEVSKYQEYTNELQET

Nc1nc2oc3cc(F)c(C4=CCCCC4)cc3c(=O)c2cc1C(=O)O [Compound 268b, 2-Amino-7-(cyclohex-1-en-1-yl)-8-fluoro-5-oxo-5H-chromeno[2,3-b]pyridine-3-carboxylic acid]
Fold Over Amlexanox: 0.00

Reference: US10214536B2, “Amlexanox analogs” (The Regents of the University of Michigan, priority 2016, dated 2019)
